This passage reports EC50 and IC50 results from US12534531 (MacroGenics, dated 2026).

Sequences of proteins named here, by UniProt entry; tags and fusion partners are left off. Residues count along the entry.
UniProt Q15116, 21-288: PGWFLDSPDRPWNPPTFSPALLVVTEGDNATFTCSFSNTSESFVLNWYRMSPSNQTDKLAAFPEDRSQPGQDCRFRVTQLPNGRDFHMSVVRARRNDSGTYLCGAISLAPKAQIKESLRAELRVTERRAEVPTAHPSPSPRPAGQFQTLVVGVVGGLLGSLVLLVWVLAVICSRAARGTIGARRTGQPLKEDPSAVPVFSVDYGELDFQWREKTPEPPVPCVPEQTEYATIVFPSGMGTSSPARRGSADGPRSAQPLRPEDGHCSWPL

The EC50 is the concentration needed to bring the measured effect to its halfway point. A word on the IC50: it is the concentration at which inhibition is half-maximal. A higher IC50 goes with weaker potency in that assay.

For assay [1], the target named is T1, human PD-1 expressed on the surface of cells (NSO cells expressing human PD-1; MNFAT-luc2/PD-1 Jurkat cells) (human, UniProt Q15116 21-288).
T1 construct: also called cell surface PD-1; PDCD1 transfected NSO cells expressing PD-1
Put plainly: FACS saturation binding to NSO cells expressing PD-1; SM; SD 1.4850.

The target of assay [2] is T1, human PD-1 expressed on the surface of …. Put plainly: FACS: inhibition of sPD-L1 binding to PD-1 on NSO cells; SM; SD 0.3097. On the technique in general: A flow cytometer gives signals particle by particle.
Assay [3] has the same target. Briefly: FACS: inhibition of sPD-L2 binding to PD-1 on NSO cells; SM; SD 1.8250.

B1: DART 1 (bispecific antibody, human IgG1, kappa, L234A L235A)
chain 1: EIVLTQSPATLSLSPGERATLSCRASQSISSYLAWYQQKPGQAPRLLIYDASNRATGIPARFSGSGSGTDFTLTISSLEPEDFAVYYCQQRSNWPLTFGQGTNLEIKGGGSGGGGQVQLVESGGGVVQPGRSLRLDCKASGITFSNSGMHWVRQAPGKGLEWVAVIWYDGSKRYYADSVKGRFTISRDNSKNTLFLQMNSLRAEDTAVYYCATNDDYWGQGTLVTVSSLGGGSGASTKGPSVFPLAPSSKSTSGGTAALGCLVKDYFPEPVTVSWNSGALTSGVHTFPAVLQSSGLYSLSSVVTVPSSSLGTQTYICNVNHKPSNTKVDKRVEPKSCDKTHTCPPCPAPEAAGGPSVFLFPPKPKDTLYITREPEVTCVVVDVSHEDPEVKFNWYVDGVEVHNAKTKPREEQYNSTYRVVSVLTVLHQDWLNGKEYKCKVSNKALPAPIEKTISKAKGQPREPQVYTLPPSREEMTKNQVSLTCLVKGFYPSDIAVEWESNGQPENNYKTTPPVLDSDGSFFLYSKLTVDKSRWQQGNVFSCSVMHEALHNHYTQKSLSLSPG
chain 2: EIVLTQSPATLSLSPGERATLSCRASQSVSSYLAWYQQKPGQAPRLLIYDASNRATGIPARFSGSGSGTDFTLTISSLEPEDFAVYYCQQSSNWPRTFGQGTKVEIKGGGSGGGGQVQLQQWGAGLLKPSETLSLTCAVYGGSFSDYYWNWIRQPPGKGLEWIGEINHNGNTNSNPSLKSRVTLSLDTSKNQFSLKLRSVTAADTAVYYCAFGYSDYEYNWFDPWGQGTLVTVSSLGGGSGRTVAAPSVFIFPPSDEQLKSGTASVVCLLNNFYPREAKVQWKVDNALQSGNSQESVTEQDSKDSTYSLSSTLTLSKADYEKHKVYACEVTHQGLSSPVTKSFNRGEC
The molecule B1 gave an EC50 in assay [1] of 2130 nM. For the same molecule, the IC50 was found to be 1750 nM in assay [2] and 2840 nM in assay [3].
